Assay results: patent publication US8436195B2 (priority 2006, dated 2013)

Test system: cancer cells PC-3 (prostate carcinoma)
Experiment: Mitochondria membranes of PC-3 cancer cells after incubation with preparation
Assay type: cell-based
Details: PC-3 cells, same dilution, 72 hours at 37° C.; with membrane swelling
Procedure: A control group was also formed consisting of the same number of vials with the same components except cancer cells, and instead, fibroblasts were put in the group vials. After thermostatting for 72 hours at 37° C. the contents of the above vials was analyzed.

Substance: rheaferon: a recombinant α2-interferon produced by a pseudomonade bacterial strain; closest analogue-prototype
- partial destruction of mitochondria membranes: about 60%
